Laboratory results as given in US20090181041A1 (published 2009).

Target: T1, PSGL-1/mIgG2b fusion protein produced in Pichia pastoris (mouse, UniProt Q14242 18-320 (human entry), O-linked mannose glycans (Hex2-9) and N-linked glycans from expression in P. pastoris; sites not given)
T1 construct: extracellular domain; Homodimeric chimeric glycoprotein, about 250-300 kDa, secreted from P. pastoris GS115 by the pPICZalpha vector and purified on MabSelect SuRe; also called PSGL-1/mlgG2b; Pp/PSGL1-mIgG2b; not shown: Fc part of mouse IgG2b
T1 sequence (looked up): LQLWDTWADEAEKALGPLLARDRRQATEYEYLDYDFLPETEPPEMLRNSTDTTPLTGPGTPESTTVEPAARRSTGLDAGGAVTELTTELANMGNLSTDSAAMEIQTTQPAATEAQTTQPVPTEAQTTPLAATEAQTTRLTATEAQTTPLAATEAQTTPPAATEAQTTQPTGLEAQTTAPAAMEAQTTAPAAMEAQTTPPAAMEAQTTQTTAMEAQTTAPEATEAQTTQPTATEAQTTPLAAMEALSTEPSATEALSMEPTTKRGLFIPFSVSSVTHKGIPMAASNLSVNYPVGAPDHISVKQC
Assay: SPR (Biacore 2000), receptor amine-coupled on CM5 chip, fusion protein as analyte, apparent Kd from steady state
Method: Immunoglobulin fusion proteins of PSGL-1 and AGP produced in wild type Pichia and purified, as described in Example 1, were used in experiments to assess their ability to bind to recombinant human macrophage mannose receptor (MMR), DC-SIGN/Fc chimera and mannan binding lectin (MBL) Using Biacore (real time surface plasmon resonance spectroscopy) analysis as follows.
Analyses were performed using a Biacore 2000 instrument (Biacore, GE Healthcare, Uppsala, Sweden). Recombinant human macrophage mannose receptor (MMR), DC-SIGN/Fc chimera and mannan binding lectin (MBL) were purchased from R & D Systems and immobilized on a CM5 sensor chip using amine coupling chemistry according to the manufacturer's instructions. Briefly, activation of the surface was made with EDC/NHS 1:1, 10 μL/min for 7 minutes and the receptors were dissolved in sodium acetate buffer pH 4.5 at concentrations of 15 μg/ml for MMR, 10 μg/ml for DC-SIGN and 90 μg/ml for MBL and immobilized at 10 μl/min for 7 minutes. Deactivation of excess of reactive groups was made with ethanolamine, 20 μl/min for 7 minutes. […] Data were calculated using BIAevaluation 4.1 software (Biacore, GE Healthcare) and the apparent equilibrium dissociation constants (Kd) were calculated by plotting steady state binding levels against the analyte concentrations for several concentrations simultaneously. […]

- Kd: 4.23 nM
B1: mannan binding lectin (MBL) (other, human, UniProt P11226 21-248, looked up)
chain: ETVTCEDAQKTCPAVIACSSPGINGFPGKDGRDGTKGEKGEPGQGLRGLQGPPGKLGPPGNPGPSGSPGPKGQKGDPGKSPDGDSSLAASERKALQTEMARIKKWLTFSLGKQVGNKFFLTNGEIMTFEKVKALCVKFQASVATPRNAAENGAIQNLIKEEAFLGITDEKTEGQFVDLTGNRLTYTNWNEGEPNNAGSDEDCVLLLKNGQWNDVPCSTSHLAVCEFPI
notes: Amine-coupled to a CM5 chip at 5676 RU
